Results as given in ChEMBL document CHEMBL3351466 (Bioorg Med Chem Lett, 2014).

Amino acid sequences for entries named in this document (tags omitted).
UniProt Q8NER1, whole entry: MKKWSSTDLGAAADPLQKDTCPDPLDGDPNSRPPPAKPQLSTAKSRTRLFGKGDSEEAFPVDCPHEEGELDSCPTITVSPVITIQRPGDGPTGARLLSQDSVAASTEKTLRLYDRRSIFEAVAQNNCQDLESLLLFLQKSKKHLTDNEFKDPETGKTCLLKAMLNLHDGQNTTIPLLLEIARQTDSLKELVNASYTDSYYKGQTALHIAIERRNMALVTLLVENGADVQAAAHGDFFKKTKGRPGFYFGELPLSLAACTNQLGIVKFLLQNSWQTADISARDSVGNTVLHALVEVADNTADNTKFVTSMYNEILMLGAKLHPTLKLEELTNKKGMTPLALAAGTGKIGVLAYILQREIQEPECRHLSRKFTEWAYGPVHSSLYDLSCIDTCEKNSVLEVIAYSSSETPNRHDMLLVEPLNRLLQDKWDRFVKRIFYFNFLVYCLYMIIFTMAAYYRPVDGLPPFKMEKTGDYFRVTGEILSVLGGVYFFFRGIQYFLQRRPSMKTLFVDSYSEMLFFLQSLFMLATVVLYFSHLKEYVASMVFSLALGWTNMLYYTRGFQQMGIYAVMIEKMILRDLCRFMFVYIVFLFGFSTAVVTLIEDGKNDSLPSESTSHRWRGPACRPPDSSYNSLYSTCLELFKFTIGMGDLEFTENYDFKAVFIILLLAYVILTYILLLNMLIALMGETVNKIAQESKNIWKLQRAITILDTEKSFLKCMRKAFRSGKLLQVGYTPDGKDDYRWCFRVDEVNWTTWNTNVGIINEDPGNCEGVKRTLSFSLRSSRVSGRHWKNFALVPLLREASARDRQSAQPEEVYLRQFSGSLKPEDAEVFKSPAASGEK

Target: Transient receptor potential cation channel subfamily V member 1 (Homo sapiens, UniProt Q8NER1)
Experiment: Antagonist activity at human TRPV1 expressed in CHO cells assessed as inhibition of capsaicin-induced increase in intracellular Ca2+ level by FLIPR assay
Assay type: cell-based

Q: How did the Ki turn out when `CC(C(=O)NCc1ccc(C(F)(F)F)nc1/C=C/C(C)(C)C)c1ccc(NS(C)(=O)=O)c(F)c1` (stereo unspecified) was run?
A: Its Ki is 0.7 nM.
